The target in experiment [1] is GST-SMN preincubated with His-SMN (SMN oligomer on beads) (human) (UniProt Q16637). As to the kind of experiment: GST pull-down after preincubation with His-SMN, lane 4X (bound His-SMN equivalent to GST-SMN).
Experiment [2] shares this target. The experiment in a line: GST pull-down after preincubation of GST-SMN with His6-tagged SMN (FIG. 43).
The target is the same in experiment [3]. As to the kind of experiment: GST pull-down after preincubation with His-SMN, lane 8X.

Some results are limits rather than exact numbers.

Among the data in patent publication US6646113 are fold increase of SmB binding against GST-SMN without His-SMN and percent of input bound values, retold here.

With “Sm B protein, in vitro translated and 35S-labeled (from UniProt P14678 1-231)”, the fold increase of SmB binding against GST-SMN without His-SMN was 10 fold in experiment [1] and 30 fold in experiment [3]. The values for the percent of input bound in experiment [2] and in experiment [3] were 100 % of input and > 60 % of input, respectively.
